Assay: Selectivity index, ratio of IC50 for inhibition of human recombinant PARP-1 to IC50 for inhibition of recombinant mouse PARP-2

For `Cn1cccc1/C=C1\C(=O)NC(=O)c2ccccc21`, which Ratio IC50 is on record?
Its Ratio IC50 is 100.
